Patent US20130084328A1, “METHYLATED CODING AND NON-CODING RNA GENES AS DIAGNOSTIC AND THERAPEUTIC TOOLS FOR HUMAN MELANOMA” (Sanford-Burnham Medical Research Institute, priority 2011, published 2013)

System: WM1552C melanoma cells
Test: RNA deep sequencing (SOLiD) of WM1552C/34b versus WM1552C/VO cells
Type: cell-based, human
Details: BFAST; WM1552C/34b vs WM1552C/VO
Description: Oligonucleotides complimentary to the hsa-miR-34b genomic sequences were constructed (miR-34b pre For-GTGCTCGGTT TGTAGGCAGT G [SEQ ID NO:25] and miR-34b pre Rev-GTGCCTTGTT TTGATGGCAG TG [SEQ ID NO:26]), containing HindIII and BamHI sites on their respective 5′ and 3′ ends, then amplified from melanocyte genomic DNA (Amplitaq Gold, Applied Biosystems/Life Technologies). The product was then TOPO cloned into pCR4-TOPO (Invitrogen/Life Technologies). The vector construct was sequenced and the pre-hsa-miR-34b fragment was sub-cloned into pcDNA4/H1-3TetR using the HindIII and BamHI sites to create pcDNA4/H1-3TetR/miR-34b. […] The following morning, cells were selected with 600 μg/mL Zeocin for the following 15 days.
Total RNA was isolated from samples using Trizol (Invitrogen/Life Technologies) and fragmented through RNase III digestion. SOLiD sequence protocols (Applied Biosytems/Life Technologies) require reverse transcription of these RNAs, priming with a ligated primer, and the resulting cDNA amplified and size-selected in a 6% urea gel with the help of SYBR Gold dye for sequencing. The sequence libraries (150-200 bp size fragments) were further amplified using a bead-based emulsion PCR optimized to physically isolate a single bead/cDNA molecule. This enables massively parallel amplification of monoclonal DNA species. For RNA-seq experiments, we deposited approximately 90 million beads per sample onto a glass slide and analyzed them using a ligation-based sequencing technology. Data were mapped to the human genome using both BioScope and BFAST software packages and analyzed at the Burnham Institute Bioinformatics core facility.
Mapping of the SOLiD sequence data was performed using the standard pipeline of Blat-like Fast Accurate Search Tool (BFAST) (Horner et al., 2009) against the human genome (hg19) (Rhead et al., 2010). […] It then hashes the reads to a number of genomic locations based on the indices and performs detailed alignments between the reads and the genomic sequence at the hashed locations. The final output of BFAST contains the mapped genomic locations of each read and the qualities (represented via alignment scores) of the mappings.
The expression level of a gene can be calculated based on the mapping results. The BFAST algorithm successfully mapped ˜63% of the reads to the reference genome; among the mapped reads, ˜89% were uniquely mapped. Only uniquely mapped reads were considered to eliminate possible noise. For each gene (from the RefSeq annotation for hg19), a score was calculated as reads per kilobase of sequence per million reads (RPKM) (Mortazavi et al., 2008).
The predefined mapping protocol for SOLiD sequencing on BioScope 1.0 was also used. BioScope was able to map ˜63% of the reads to the reference genome, ˜83% uniquely. The output was then fed into the Partek Genomics Suite for analysis. Again, an RPKM score was computed for each gene.
The results of the two analysis pipelines were compared to arrive at a consensus. […] For this calculation, a pseudo-count of 1.0 was used to overcome divide by zero errors and to normalize the data at low RPKM values. […] The order of the genes was then directed by the corroborated fold change. For the open reading frames, a cutoff was established with a minimum fold change of +/−1.5 (1.5 for miRNAs, −1.2 for target genes). The transcript delta was also obtained; this was used to select genes for further testing, this cutoff was set at 10.0 for open reading frames (1.3 for miRNAs, −2.0 for target genes). Of particular interest are the target genes of miR-34b.

miR-34b: nucleic acid exemplified by SEQ ID NO:2 (CAAUCACUAACUCCACUGCCAU); stably expressed in WM1552C from pcDNA4/H1-3TetR/miR-34b (WM1552C/34b) (CAAUCACUAACUCCACUGCCAU)
ACAN Fold Change: 2.20 | ACAN Transcript Difference: 18.43 | ALCAM Fold Change: −2.31 | ALCAM Transcript Difference: 10.22 | AP2M1 Fold Change: −1.84 | AP2M1 Transcript Difference: 23.31 | CADM4 Fold Change: 1.79 | CADM4 Transcript Difference: 10.14 | CAVI Fold Change: −1.52 | CAVI Transcript Difference: 15.33 | COL6A1 Fold Change: −1.64 | COL6A1 Transcript Difference: 10.43 | COL9A3 Fold Change: 1.78 | COL9A3 Transcript Difference: 13.40 | CRIMI Fold Change: −1.69 | CRIMI Transcript Difference: 11.42 | CXCL1 Fold Change: −1.55 | CXCL1 Transcript Difference: 136.23 | CYR61 Fold Change: −1.60 | CYR61 Transcript Difference: 25.31 | DKK1 Fold Change: −9.27 | DKK1 Transcript Difference: 15.87 | FASN Fold Change: 1.72 | FASN Transcript Difference: 15.03 | FBNI Fold Change: −2.54 | FBNI Transcript Difference: 20.45 | FCRLA Fold Change: 2.84 | FCRLA Transcript Difference: 14.95 | FSTL1 Fold Change: −1.76 | FSTL1 Transcript Difference: 21.59 | HLA-DRA Fold Change: 1.76 | HLA-DRA Transcript Difference: 20.43 | HLA-DRBI Fold Change: 2.27 | HLA-DRBI Transcript Difference: 15.71 | ID3 Fold Change: −2.63 | ID3 Transcript Difference: 16.00 | IGFBP2 Fold Change: 1.75 | IGFBP2 Transcript Difference: 46.90 | IGFBP7 Fold Change: −2.12 | IGFBP7 Transcript Difference: 43.32 | IL1B Fold Change: −8.10 | IL1B Transcript Difference: 185.64 | IL6 Fold Change: −1.62 | IL6 Transcript Difference: 11.43 | INHBA Fold Change: −8.84 | INHBA Transcript Difference: 9.96 | ITGA3 Fold Change: −3.42 | ITGA3 Transcript Difference: 21.36 | ITGB5 Fold Change: −1.67 | ITGB5 Transcript Difference: 10.36 | KLF9 Fold Change: 1.60 | KLF9 Transcript Difference: 12.71 | LOXL2 Fold Change: −1.79 | LOXL2 Transcript Difference: 52.37 | LYPD1 Fold Change: −3.98 | LYPD1 Transcript Difference: 16.85 | MARCKSLI Fold Change: 1.68 | MARCKSLI Transcript Difference: 10.96 | MIA Fold Change: 1.90 | MIA Transcript Difference: 31.30 | MIR20B Fold Change: 1.50 | MIR20B Transcript Difference: 5.24 | MIR34B Fold Change: 4.95 | MIR34B Transcript Difference: 3.95 | MIR134 Fold Change: 1.80 | MIR134 Transcript Difference: 1.42 | MIR140 Fold Change: 2.16 | MIR140 Transcript Difference: 10.76 | MIR149 Fold Change: 1.91 | MIR149 Transcript Difference: 5.56 | MIR154 Fold Change: 1.83 | MIR154 Transcript Difference: 3.01 | MIR181D Fold Change: 1.55 | MIR181D Transcript Difference: 1.22 | MIR199B Fold Change: 1.67 | MIR199B Transcript Difference: 3.68 | MIR301A Fold Change: 1.62 | MIR301A Transcript Difference: 2.25 | MIR323 Fold Change: 2.24 | MIR323 Transcript Difference: 1.78 | MIR362 Fold Change: 1.82 | MIR362 Transcript Difference: 1.56 | MIR376A2 Fold Change: 2.08 | MIR376A2 Transcript Difference: 1.14 | MIR380 Fold Change: 2.14 | MIR380 Transcript Difference: 1.14 | MIR382 Fold Change: 1.95 | MIR382 Transcript Difference: 1.12 | MIR409 Fold Change: 5.11 | MIR409 Transcript Difference: 7.38 | MIR410 Fold Change: 2.01 | MIR410 Transcript Difference: 2.38 | MIR425 Fold Change: 1.55 | MIR425 Transcript Difference: 1.66 | MIR431 Fold Change: 1.75 | MIR431 Transcript Difference: 3.13 | MIR432 Fold Change: 1.78 | MIR432 Transcript Difference: 3.76 | MIR453 Fold Change: 2.93 | MIR453 Transcript Difference: 2.27 | MIR487A Fold Change: 2.06 | MIR487A Transcript Difference: 1.56 | MIR494 Fold Change: 2.08 | MIR494 Transcript Difference: 1.75 | MIR495 Fold Change: 2.94 | MIR495 Transcript Difference: 3.47 | MIR496 Fold Change: 1.60 | MIR496 Transcript Difference: 2.25 | MIR501 Fold Change: 2.26 | MIR501 Transcript Difference: 1.26 | MIR518A2 Fold Change: 1.88 | MIR518A2 Transcript Difference: 1.16 | MIR656 Fold Change: 1.97 | MIR656 Transcript Difference: 1.08 | MIR660 Fold Change: 3.11 | MIR660 Transcript Difference: 5.07 | MIR663B Fold Change: 1.99 | MIR663B Transcript Difference: 27.73 | MIR663 Fold Change: 1.71 | MIR663 Transcript Difference: 29.24 | MIR1197 Fold Change: 1.58 | MIR1197 Transcript Difference: 1.06 | MIR1205 Fold Change: 1.72 | MIR1205 Transcript Difference: 1.06 | MIR1312 Fold Change: 1.58 | MIR1312 Transcript Difference: 2.73 | MMP14 Fold Change: −1.54 | MMP14 Transcript Difference: 11.92 | MMPS Fold Change: 2.86 | MMPS Transcript Difference: 10.55 | NT5E Fold Change: 1.53 | NT5E Transcript Difference: 15.25 | PDE1C Fold Change: −1.67 | PDE1C Transcript Difference: 13.00 | PTTGHP Fold Change: −1.73 | PTTGHP Transcript Difference: 16.78 | RCANI Fold Change: 2.34 | RCANI Transcript Difference: 43.98 | RPL24 Fold Change: 1.79 | RPL24 Transcript Difference: 12.58 | RPL37A Fold Change: 1.67 | RPL37A Transcript Difference: 25.39 | S100A16 Fold Change: −2.84 | S100A16 Transcript Difference: 23.09 | S100B Fold Change: 2.35 | S100B Transcript Difference: 59.92 | SEMA3C Fold Change: −1.61 | SEMA3C Transcript Difference: 12.41 | SERPINA3 Fold Change: 2.45 | SERPINA3 Transcript Difference: 10.54 | SERPINB2 Fold Change: −3.64 | SERPINB2 Transcript Difference: 14.77 | SRGN Fold Change: −5.67 | SRGN Transcript Difference: 14.98 | STC1 Fold Change: −21.23 | STC1 Transcript Difference: 10.85 | STC2 Fold Change: −4.48 | STC2 Transcript Difference: 11.00 | TGFBI Fold Change: −1.60 | TGFBI Transcript Difference: 19.23 | THBS2 Fold Change: 1.53 | THBS2 Transcript Difference: 100.99 | TNFRSF21 Fold Change: −3.92 | TNFRSF21 Transcript Difference: 22.18 | TNS3 Fold Change: −1.57 | TNS3 Transcript Difference: 32.33 | TXNIP Fold Change: −2.34 | TXNIP Transcript Difference: 26.14 | UGCG Fold Change: −1.76 | UGCG Transcript Difference: 14.74 | WNT5A Fold Change: −2.19 | WNT5A Transcript Difference: 16.19
